This is a selection; strong and weak results do not stand in their true shares. Some results for these compounds are left out of this collection, so the calls shown say nothing about other tests. The source made the active and inactive calls.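 Rule for the calls: active = inhibition above a set limit, 3 SD over mean compound inhibition (cut at about 8.4% in these data); inactive = the rest.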

The assay can be described thus: RAM signaling blockers in budding yeast – dse1pr::URA3 reporter, 5-FOA selection, primary screen (AID 868).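 Note: 0% = DMSO-only wells with no growth and 100% = 10 µM 1-NA-PP1 full growth.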 Particulars: S. cerevisiae dse1pr::URA3 reporter, 5-FOA growth OD615, 2 d; at 50 µM; stronger effect = higher value; analog-sensitive cbk1-as2 kinase mutant strain.
`CN(C)c1cccc(C(=O)NCC2(N(C)C)CCCCC2)c1`: the inhibition was inactive: 0.91%.

For the compound `O=C(OC1CN2CCC1CC2)C(CO)(c1ccccc1)c1ccccc1` (centres undefined), the inhibition was inactive: 1.46%.

As for `COc1cccc(C(=O)NCC2(N3CCCCC3)CCCCC2)c1`, the inhibition was inactive: 0.5%.

`CCN1CCCC(OC(=O)C2(O)c3ccccc3C=Cc3ccccc32)C1` (centres undefined): the inhibition was inactive: 0.96%.

Regarding `C=CCN1CCN(CCOC(=O)C(O)(c2ccccc2)c2ccccc2)CC1`, the inhibition is inactive: 2.84%.

`CN(C)C1CCCC1OC(=O)C(O)(c1ccccc1)c1ccccc1` (centres undefined): the inhibition is inactive: 0.12%.

For the compound `Cc1ccccc1C(=O)NCC1(N2CCCCC2)CCCCC1`, the inhibition is inactive: 1.73%.

`CC(C)N1C(=O)CC2(CCN(CCOC(=O)C(O)(c3ccccc3)c3ccccc3)CC2)C1=O`: the inhibition was inactive: 1.62%.

With `O=C(NCC1(N2CCCCC2)CCCCC1)c1cc([N+](=O)[O-])ccc1Cl`, the inhibition was inactive: -1.36%.

The values above are taken from PubChem BioAssay AID868 (SRMLSC, 2007).
